This is an account of results in PubChem BioAssay AID2280 (The Scripps Research Institute Molecular Screening Center, 2010).

By UniProt entry, the sequences of proteins in these tests, tags left out.
UniProt Q17339, whole entry: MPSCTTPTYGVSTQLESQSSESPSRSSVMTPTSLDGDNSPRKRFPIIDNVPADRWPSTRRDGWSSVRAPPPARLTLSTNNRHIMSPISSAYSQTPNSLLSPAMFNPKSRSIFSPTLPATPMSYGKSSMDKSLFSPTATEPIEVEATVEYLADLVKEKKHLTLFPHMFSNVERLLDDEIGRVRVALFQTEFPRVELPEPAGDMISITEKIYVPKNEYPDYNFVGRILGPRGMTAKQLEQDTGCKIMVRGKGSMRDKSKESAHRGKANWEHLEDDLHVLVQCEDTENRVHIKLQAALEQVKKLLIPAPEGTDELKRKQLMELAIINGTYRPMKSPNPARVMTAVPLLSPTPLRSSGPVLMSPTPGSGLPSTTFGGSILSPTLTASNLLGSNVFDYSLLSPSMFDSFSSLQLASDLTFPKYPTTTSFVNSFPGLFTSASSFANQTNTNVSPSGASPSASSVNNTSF

Broadly, the inhibition is the drop in the measured response relative to a control, in per cent.

Only a part is listed here, and it is no random draw. Activity calls are given as the source filed them.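 How the source made its calls: active means percent inhibition above a per-plate cutoff, the plate mean of test compounds plus 3 SD (cut at about 30% in these data); inactive means the rest.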

The target of the test is Female germline-specific tumor suppressor gld-1 (Caenorhabditis elegans) (UniProt Q17339). The test can be described thus: small molecules blocking C. elegans GLD-1 RNA recognition – biochemical, fluorescence polarization, primary screen (AID 2280).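 Further: 0% = DMSO wells with GLD-1 and probe and 100% = wells lacking GLD-1.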 The note with it: purified GLD-1 + fluorescein TGE RNA, at 5.96 µM, hits give high values. For orientation: Fluorescence polarisation rises when a labelled molecule tumbles more slowly, as on binding a larger partner.
Regarding `O=C(NCC1(N2CCCCC2)CCCCC1)c1ccc(=O)[nH]c1`, the inhibition is inactive: 4.78%. As to `O=C(NCC1(N2CCCCC2)CCCCC1)c1cccs1`, the inhibition was inactive: -0.54%. Regarding `COc1ccc(C(=O)NCC2(N3CCCCC3)CCCCC2)cc1`, the inhibition was inactive: -3.84%. The same measure for `COc1ccc(C(=O)NCC2(N3CCCCC3)CCCCC2)c(OC)c1OC`: inactive: 3.89%. Regarding `CC(C)(C)OC(=O)N1CCC(N(C(=O)c2ccccc2)c2ccc(F)cc2)CC1`, the inhibition is inactive: -2.22%. For the molecule `CSc1ccccc1C(=O)NCC1(N2CCCCC2)CCCCC1`, the inhibition was inactive: -8.64%. The same measure for `O=C(NCC1(N2CCOCC2)CCCCC1)c1cc2ccccc2o1`: inactive: 6.6%; for `O=C(NCC1(N2CCCCC2)CCCCC1)c1ccc(Cl)nc1`: inactive: 2.84%. The same measure for `Cc1cc(C)cc(N(C(=O)c2ccccc2)C2CCN(C(=O)OC(C)(C)C)CC2)c1`: inactive: 2.41%. The same measure for `CCOC(=O)N1CCC(Nc2ccc(OC)cc2)CC1`: inactive: 1.58%; for `N#CC1(Nc2ccccc2)CCN(Cc2ccccc2)CC1`: inactive: -2.71%.

Take `O=C(NCC1(N2CCCCC2)CCCCC1)c1ccc(Cl)s1`: the inhibition was inactive: 1.19%. Next, `O=C(OC1CN2CCC1CC2)C1c2ccccc2Oc2ccccc21` (stereo not drawn): inactive: -2.04%; `COc1ccc(Cl)cc1C(=O)NCC1(N2CCOCC2)CCCCC1`: inactive: 4.34%; `CCOc1ccc(C)cc1CN(CCCl)CCCl`: inactive: -6.02%. For the molecule `O=C(NCC1(N2CCCCC2)CCCCC1)c1ccc(F)cc1`, the inhibition was inactive: -1.93%. The same measure for `COc1ccc(NC2CCN(CCc3ccccc3)CC2)c(OC)c1`: inactive: 1.18%; for `CCOC(=O)N1CCC(Nc2cccc(C)c2)CC1`: inactive: 6.41%; for `Cc1ccc(OCC(C)C)c(CN(CCCl)CCCl)c1`: inactive: -0.24%. Next, `O=C(NCC1(N2CCCCC2)CCCCC1)c1ccc(OC(F)F)cc1`: inactive: -5.25%; `O=C(NCC1(N2CCCCC2)CCCCC1)c1cccc([N+](=O)[O-])c1`: inactive: 0.75%.

With `CCN1CCC(Nc2ccc(Cl)cc2)CC1`, the inhibition is inactive: 2.81%. On to `N#CC1(Nc2ccccc2)CCN(CCc2ccccc2)CC1`, for which the inhibition was inactive: 6.09%. Next, `O=C(NCC1(N2CCCCC2)CCCCC1)c1cccc(C(F)(F)F)c1`: inactive: 1.97%; `CN1CCN(CCOC(=O)C(O)(c2ccccc2)c2ccccc2)CC1`: inactive: 0.5%; `COc1ccc(NC2CCN(C(=O)OC(C)(C)C)CC2)cc1`: inactive: 3.77%. Next, `COc1cc(C(=O)NCC2(N3CCCCC3)CCCCC2)ccc1OC(F)F`: inactive: 1.79%. The same measure for `O=C(NCC1(N2CCOCC2)CCCCC1)c1cc(=O)[nH]c2ccccc12`: inactive: -3.69%; for `COc1ccc(CN(CCCl)CCCl)cc1Cl`: inactive: -0.25%; for `CN(C)c1cccc(C(=O)NCC2(N3CCCCC3)CCCCC2)c1`: inactive: -5.04%.

Regarding `CC(C)c1ccc(NC2CCN(C(=O)OC(C)(C)C)CC2)cc1`, the inhibition was inactive: 5.73%.

Consider `COc1cc(OC)c(C(=O)NCC2(N(C)C)CCCCC2)cc1OC`, for which the inhibition was inactive: 1.88%.

For the molecule `O=C(NCC1(N2CCOCC2)CCCCC1)c1cc(F)c(F)cc1Cl`, the inhibition was inactive: 7.18%. Next, `CN1CCC(Nc2cccc(F)c2)CC1`: inactive: -3.74%. The same measure for `O=C(NCC1(N2CCCCC2)CCCCC1)c1cncc(Br)c1`: inactive: 2.97%. With `O=C(NCC1(N2CCOCC2)CCCCC1)c1cc(Br)ccc1Cl`, the inhibition was inactive: -6.65%. Next, `COc1cc(C(=O)NCC2(N3CCOCC3)CCCCC2)cc(OC)c1C`: inactive: 3.49%; `COc1ccc(C(=O)NCC2(N3CCOCC3)CCCCC2)cc1OC`: inactive: -1.08%; `N/C(=N\O)c1c(N)no[n+]1[O-]`: inactive: -3.02%. Next, `CCOC(=O)N1CCC(Nc2ccc(C)cc2)CC1`: inactive: -4.25%; `CCc1cc(C(=O)NCC2(N3CCCCC3)CCCCC2)sc1C`: inactive: -3.3%. As to `O=C(OC1CN2CCC1CC2)C1c2ccccc2C=Cc2ccccc21` (stereo not drawn), the inhibition is inactive: 5.93%.

For the molecule `CC(C)(C)OC(=O)N1CCC(N(C(=O)c2ccccc2)c2ccc(Cl)cc2)CC1`, the inhibition is inactive: -0.05%. As to `N#Cc1ccc(C(=O)NCC2(N3CCCCC3)CCCCC2)cc1`, the inhibition was inactive: 7.09%.

With `c1ccc(CN2CCC(Nc3ccccc3)CC2)cc1`, the inhibition was inactive: -1.1%. `CCCN1CCC(Nc2cc(OC)cc(OC)c2)CC1`: the inhibition is inactive: 1.81%. Turning to `CN(C)C1(CNC(=O)c2cccc(C#N)c2)CCCCC1`, the inhibition is inactive: -8.69%.

As to `COc1cc(OC)cc(C(=O)NCC2(N3CCCCC3)CCCCC2)c1`, the inhibition is inactive: -1.99%. For `Cc1ccc(C(=O)NCC2(N3CCCCC3)CCCCC2)o1`, the inhibition is inactive: 2.71%. The same measure for `Fc1ccccc1NC1CCN(Cc2ccccc2)CC1`: inactive: 5.84%; for `CCN1CCC(Nc2cccc(F)c2)CC1`: inactive: 4.73%. As for `O=C(NCC1(N2CCCCC2)CCCCC1)c1ccco1`, the inhibition was inactive: -4%. Next, `CN(C)c1ccc(C(=O)NCC2(N3CCCCC3)CCCCC2)cc1`: inactive: 7.98%; `CCOc1ncccc1C(=O)NCC1(N2CCOCC2)CCCCC1`: inactive: 2.77%; `CN1CCC(Nc2ccc(F)c(Cl)c2)CC1`: inactive: 1.92%.

Turning to `CCCOc1ccc(C(=O)NCC2(N(C)C)CCCCC2)cc1`, the inhibition was inactive: 3.27%. Next, `CC(C)(C)OC(=O)N1CCC(Nc2ccccc2)CC1`: inactive: -8.33%; `O=C(O)C1(Nc2ccccc2)CCN(Cc2ccccc2)CC1`: inactive: 6.68%. The same measure for `CCC(CO)(C(=O)OC1CN2CCC1CC2)c1ccccc1` (stereo not drawn): inactive: -0.42%; for `COc1cc(OC)cc(C(=O)NCC2(N3CCOCC3)CCCCC2)c1`: inactive: -1.04%. Next, `COc1cccc(C(=O)N(c2cc(C)cc(C)c2)C2CCN(C(=O)OC(C)(C)C)CC2)c1`: inactive: -5.35%; `CCCOc1ccc(C)cc1CN(CCCl)CCCl`: inactive: -2.97%; `CN1CCC(Nc2ccc(Cl)cc2)CC1`: inactive: 9.59%.
